Measurements as given in patent publication US20240316042A1 (AbbVie Inc., priority 2023, published 2024).

Key:
[1] = system: pediatric patients with pcJIA; experiment: Phase 1 open-label study in pediatric pcJIA patients: efficacy (JIA ACR, JADAS-27, C-HAQ);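 note: values come from an interim analysis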
[2] = system: pediatric subjects with severe atopic dermatitis; experiment: Phase 1 open-label study in pediatric subjects with severe atopic dermatitis: efficacy (vIGA-AD, EASI); type: in vivo, human

In the case of `CC[C@@H]1CN(C(=O)NCC(F)(F)F)C[C@@H]1c1cnc2cnc3[nH]ccc3n12` [upadacitinib, (3S,4R)-3-ethyl-4-(3H-imidazo[1,2-a]pyrrolo[2,3-e]pyrazin-8-yl)-N-(2,2,2-trifluoroethyl)pyrrolidine-1-carboxamide], the “CRP, Change from Baseline Median (Min, Max)” value (“CRP, Change” for short) ([1]; Week 12, Overall) is reported as −0.390 (−77.05, 17.20), the “ESR, Change from Baseline Mean ([…]% CI)” value ([1]; Week 12, Overall) is reported as −7.3 (−11.7, −2.9) and the “Total Number of Active Joints, Change from Baseline Mean ([…]% CI)” value ([1]; Week 12, Overall) is reported as −9.4 (−10.9, −7.8). For the same molecule, the “Total Number of Active Joints, Change from Baseline Mean ([…]% CI)” value ([1]; Week 12, age 2 to <6 years) was −7.0 (−8.8, −5.2), the “CRP, Change” value ([1]; Week 12, age 6 to <12 years) was −0.820 (−16.70, 5.50) and the “ESR, Change from Baseline Mean ([…]% CI)” value ([1]; Week 12, age 6 to <12 years) was −9.9 (−17.3, −2.5). The “CRP, Change” value ([1]; Week 12, age 12 to <18 years) was −0.150 (−16.49, 17.20), the “ESR, Change from Baseline Mean ([…]% CI)” value ([1]; Week 12, age 12 to <18 years) was −0.3 (−5.8, 5.3) and the “Patient/Parent Global Assessment of Overall Well Being (VAS), Change from Baseline Mean ([…]% CI)” value ([1]; Week 12, age 12 to <18 years) was −19.6 (−28.3, −10.8). For the same molecule, the “EASI 75 response” value ([2]; Week 12, 7 subjects of Cohorts 3 and 4 on revised dosing scheme from study entry) was “all subjects achieved an EASI 75 response”, the “Percent Change in EASI, Mean” value ([2]; Week 12, Age 2 to <6 years) was −82.0% and the “Change in EASI, Mean” value ([2]; Week 12, Age 6 to <12 years) was −25.0. The “Percent Change in EASI, Mean” value ([2]; Week 12, Age 6 to <12 years) was −78.0%.
